Measurements from paper PMC6017588, “Synthesis and Structure-Activity Relationships of LP1 Derivatives: N-Methyl-N-phenylethylamino Analogues as Novel MOR Agonists” (Molecules : A Journal of Synthetic Chemistry and Natural …, 2018).

Chains of the proteins cited; added tags and fusions are not shown.
UniProt P33535, whole entry: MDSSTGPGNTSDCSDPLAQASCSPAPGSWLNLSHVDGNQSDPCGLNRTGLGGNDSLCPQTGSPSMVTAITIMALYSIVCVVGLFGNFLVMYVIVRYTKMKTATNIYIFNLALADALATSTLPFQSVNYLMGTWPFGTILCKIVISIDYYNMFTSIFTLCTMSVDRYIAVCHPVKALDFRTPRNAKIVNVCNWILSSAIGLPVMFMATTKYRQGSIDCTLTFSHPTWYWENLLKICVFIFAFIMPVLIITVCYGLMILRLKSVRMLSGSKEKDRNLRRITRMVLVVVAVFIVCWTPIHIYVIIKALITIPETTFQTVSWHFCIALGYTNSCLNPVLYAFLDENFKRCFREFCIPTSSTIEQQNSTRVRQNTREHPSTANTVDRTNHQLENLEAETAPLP

Biological target: MOR (Rattus norvegicus, UniProt P33535)
Experiment: MOR competitive radioligand binding ([3H]-DAMGO displacement, rat brain membranes)
Parameters: from tissue; host or cells: rat brain membranes
Settings: read-out: Ki (nM) ± SEM MOR

## C[C@@H](NC(=O)[C@@H](N)Cc1ccc(O)cc1)C(=O)NCC(=O)N(C)[C@@H](Cc1ccccc1)C(=O)NCCO [DAMGO, reference compound]
  Ki: 1.16 ± 0.1 nM
